Literature values, collected in patent publication US5487990A (The General Hospital Corporation, priority 1992, dated 1996).

The chains behind the UniProt entries cited, without tags or fusion partners. Where a name states a change or a piece, a line headed by the entry shows the natural chain unless it says otherwise.
UniProt Q99NB7: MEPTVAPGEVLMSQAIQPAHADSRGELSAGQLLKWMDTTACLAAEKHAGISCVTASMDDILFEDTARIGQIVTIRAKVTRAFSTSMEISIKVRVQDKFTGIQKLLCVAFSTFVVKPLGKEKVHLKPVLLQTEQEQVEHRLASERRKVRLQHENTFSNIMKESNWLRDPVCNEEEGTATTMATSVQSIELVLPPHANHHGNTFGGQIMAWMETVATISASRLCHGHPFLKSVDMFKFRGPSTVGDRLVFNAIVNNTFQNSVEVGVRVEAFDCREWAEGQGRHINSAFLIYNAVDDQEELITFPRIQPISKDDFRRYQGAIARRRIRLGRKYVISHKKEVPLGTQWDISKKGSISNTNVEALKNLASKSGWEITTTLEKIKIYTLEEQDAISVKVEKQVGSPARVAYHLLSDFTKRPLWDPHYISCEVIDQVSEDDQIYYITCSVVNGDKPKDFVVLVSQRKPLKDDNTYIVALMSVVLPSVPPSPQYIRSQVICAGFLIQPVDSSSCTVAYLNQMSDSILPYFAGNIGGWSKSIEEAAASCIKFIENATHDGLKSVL

Biological target: T1, soluble cytosolic acetyl-CoA hydrolase found in rat liver (Rattus norvegicus, UniProt Q99NB7)
T1 construct: host or cells: rat liver cytoplasm (Prass et al. 1980; Soling et al. 1985)
Details: rat liver cytoplasmic, cold-labile enzyme; cited from earlier work

In the case of `Nc1ncnc2c1ncn2[C@@H]1O[C@H](COP(=O)(O)OP(=O)(O)OP(=O)(O)O)[C@@H](O)[C@H]1O` [ATP], the “effect on enzyme (in words)” value is given as “activated”.
